# Literature values as cited in PMC7955072 (Nature Communications, 2021).
# Tested on: bacterial IleRSs
# Conditions: cited from earlier work
compound,measurement,value
"CCCC[C@@]1(OC(=O)CCC(=O)O)CC[C@]2(CC[C@H](C)[C@@H](C/C=C(C)/C=C/[C@H](O)[C@@H](C)/C=C/C(=O)O)O2)O[C@H]1/C=C/C(C)=C/C(=O)O [RM-A, reveromycin A]",inhibition of bacterial IleRSs,does not show significant inhibition
